Test results taken from BindingDB's records for doi:10.1021/acs.jmedchem.5b00671 (University of Clermont Auvergne, 2016).

Target: T1, Potassium channel subfamily K member 2 (Homo sapiens, UniProt O95069)
T1 sequence (O95069 whole entry): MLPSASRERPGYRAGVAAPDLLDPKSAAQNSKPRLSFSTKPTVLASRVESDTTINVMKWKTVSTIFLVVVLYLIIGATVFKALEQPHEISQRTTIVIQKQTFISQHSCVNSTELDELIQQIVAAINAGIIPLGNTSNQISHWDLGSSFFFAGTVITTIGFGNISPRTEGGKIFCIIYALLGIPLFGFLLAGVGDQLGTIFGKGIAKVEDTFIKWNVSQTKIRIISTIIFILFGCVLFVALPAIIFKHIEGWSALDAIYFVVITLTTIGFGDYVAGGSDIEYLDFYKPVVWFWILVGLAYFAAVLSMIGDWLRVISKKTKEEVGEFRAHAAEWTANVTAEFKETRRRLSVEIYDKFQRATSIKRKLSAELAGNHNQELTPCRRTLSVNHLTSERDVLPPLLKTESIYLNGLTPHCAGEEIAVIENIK
Assay: Inhibition of human TREK1 expressed in whole COS cells assessed as reduction in channel currents

**Q.** Which IC50 does the source give for OCCN1CCN(CC/C=C2/c3ccccc3Sc3ccc(C(F)(F)F)cc32)CC1 [Fluphenthixol] here?
**A.** 2000 nM
